Values quoted from earlier work, collected in patent US20230181442A1, “METHOD FOR DYEING KERATIN MATERIAL, COMPRISING THE USE OF AN ORGANOSILICON COMPOUND, HYALURONIC ACID (SALT), A DYEING COMPOUND AND A POST-TREATMENT AGENT” (Henkel AG & Co. KGaA, priority 2020, published 2023).

Conditions: 25° C.

## 3,4,5,6-tetrachloro-2-(1,4,5,8-tetrabromo-6-hydroxy-3-oxoxanthen-9-yl)benzoic acid [Acid Red 92]
  solubility in water: greater than 10 g/L
